Apparent affinities of Ab-14 variants for a coronavirus HR2 peptide

Binding partner: SARS-CoV-2 spike HR2 peptide, sequence PDVDLGDISGINAS.

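Phage display of a naive human antibody library on the peptide gave the parent. These sequences belong to a second round, designed from the earlier measurements on random variants of the parent. Several design methods are mixed in this list. Affinity was read by AlphaSeq, a pooled yeast mating assay with surface-displayed partners. Mating (16 h, 30 °C) was followed by selection of diploids and sequencing of their barcodes. Each replicate has its own calibration line, from reference interactions of the BCL2 family. Mating was done six times.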

Each scFv is VH, a (GGGGS)3 linker, VL, as in the parent Ab-14, and differs from it in the CDRs of the heavy chain only.
VH: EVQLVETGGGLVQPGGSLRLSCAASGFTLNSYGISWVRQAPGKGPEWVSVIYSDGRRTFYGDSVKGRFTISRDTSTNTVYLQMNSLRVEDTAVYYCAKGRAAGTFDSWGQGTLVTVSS
VL: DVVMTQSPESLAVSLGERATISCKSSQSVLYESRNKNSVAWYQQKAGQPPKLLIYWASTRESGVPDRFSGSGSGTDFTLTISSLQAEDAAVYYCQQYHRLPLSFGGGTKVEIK

The parent's heavy chain CDRs are GFTLNSYGIS, VIYSDGRRTFYGDSVK, GRAAGTFDS; each variant's own CDRs replace them letter for letter. Scale: log10 of Kd in nM, estimated from mating counts; low values are strong binders. The mean shown is taken over the replicates in which the pair was detected. Where no diploid with the target was found in any replicate, the entry reads "nd": below detection, most likely a poor binder, though not proof of it. As a blank, each scFv also met three strains without target: over all heavy chain designs, 1% of these pairings were detected, typically at 2.08 and seldom below 0.84. Of ten entries with the parent sequence, four were seen in most replicates (averages 0.34 to 2.37), three in one and three in none, so single entries are noisy. In the paper, a design with two or fewer of six values counts as a poor binder. A sequence measured in both rounds can read differently, since the two assays cover different ranges. Where one sequence has several entries in the source, the replicates are pooled.

| CDR-H1 | CDR-H2 | CDR-H3 | log10 Kd (nM), mean | seen in |
|---|---|---|---|---|
| GFDLNEYGIS | VIYADGMRKYYADSVK | GNQAGTFDV | -1.64 | 6/6 |
| GFNLNEYGIS | VIYADGIRKAYLNTVK | GIHSGGTWV | nd | 0/6 |
| GFDLDEYGIS | VIYADGSRTAYSDSVK | GNEAGTFDV | 0.31 | 6/6 |
| GFDLNSYGIS | VIYSDGRRTFYADSVK | GVAAGTFDS | 0.54 | 6/6 |
| GIDLEEYGIS | VIYADGMRTQYINAVK | GIAGDQMDV | nd | 0/6 |
| GFDLNEYGIS | VIYADGQRTAYADSVK | GKVAGTFDM | -0.76 | 6/6 |
| GFDLNEYGIS | VIYADGRRTFYSDSVK | GGNAGTFDQ | -0.25 | 6/6 |
| GFNLGEYGIS | VIYADGRRTFYINSVK | GEFIVMNVI | nd | 0/6 |
| GFQLNEYGIS | VIYSDGRRTFYGDSVK | GFAAGTFDL | 0.99 | 1/6 |
| GFDLNAYGIS | VIYSDGRRTFYGDSVK | GKTAGTFDS | 0.72 | 6/6 |
| GFNLNSYGIS | VIYSDGRRTFYGDSVK | GKAAGTFDS | 1.62 | 10/12 |
| GFTLKSYGIS | VIYSDGRRTFYGDEVK | GRAAGTFDS | 1.49 | 1/6 |
| GFELDEYGIS | VIYADGRRTFYSDSVK | GSTAGTFDV | -0.49 | 6/6 |
| GFDLNDYGIS | VIYSDGRRCFYGDSFK | GRAAGDFDS | nd | 0/6 |
| GFDLNSYGIS | VIYSDGRRTFYGDSVK | GKVAGTFDQ | -0.04 | 6/6 |
| GFTLNSYGIS | VIYADGKRTFYGDQVK | GRAAGTFKS | nd | 0/6 |
| GADIEEYGIS | VIYADGVRKYYVNSFK | GEMAGTFTN | 1.67 | 1/6 |
| EFDLNEYGVS | VIYADGHRTFYADHVK | GQEAGIFFM | nd | 0/6 |
| GATLNSYGIS | VIYSDGRRTAYGDSVK | GRACGTFDS | nd | 0/6 |
| GFDLNEYGIS | VIYADGVRTFYADSVK | GEYAGTFDI | 0.28 | 6/6 |
| GFDLNEYGIS | VIYADGRRTAYSDSVK | GEQAGTFDF | -0.53 | 6/6 |
| GFDLDEYGIS | VIYADGMRTAYADSVK | GGNAGTFDI | -0.31 | 6/6 |
| GEDLDEYGIS | VIYADGRRVVYQDQVK | GELSGNFAQ | 0.17 | 6/6 |
| GFTLNSYGIS | VIYSDGMRTFYGDSVK | RRAAGTFDL | nd | 0/6 |
| GFTLNSYGIS | VIYSDGRRTFYGDSVK | GRAAGSFTV | nd | 0/6 |
| GFTLNSYGIS | VIYSDGRLTQYDDKVK | GRAAGTFDS | nd | 0/6 |
| GFDLEDYGIS | VIYADGQRTFYADSVK | GEIAGTFDL | 0.55 | 2/6 |
| GFTLNDYGIS | VIYSDGRRTEYIDSVK | GRAAGTFDS | 1.98 | 4/6 |
| GFNLNSYGIS | VIYSDGRRTFYADPVK | GRTAGTFDS | 0.65 | 6/6 |
| GFTLNEYGIS | VIYSDGRRTFYDDSVK | GRAAGTFDS | 0.16 | 12/12 |
| GFGMEEYGIS | VIYADGQRLAYADEVK | GENAGSFDI | 1.88 | 2/6 |
| GFTLNSYGIS | VIYADGRRTFYGDSVK | WRAAGLFDS | nd | 0/6 |
| GFDLDEYGIS | VIYADGMRTAYADNVK | GETAGTFDV | -0.29 | 6/6 |
| GFDLNSYGIS | VIYSDGRRTFYADKVK | GRQAGTFDS | 0.24 | 4/6 |
| GFDLDEYGIS | VIYADGMRTAYADSVK | GEAAGTFDV | 0.33 | 6/6 |
| GFDLNSYGIS | VIYSDGRRTWYGDSVK | GQAAGTFDS | 0.49 | 6/6 |
| GFDLNEYGIS | VIYADGVRTAYLQNVK | GEVTGFDQY | 0.91 | 1/6 |
| GFTLNEYGIS | VIYSDGRRTFYADSVK | GRTAGTFDS | 0.01 | 6/6 |
| GFSLNMYGIS | VIYSDGRRTFYGDSVK | GQTAGTFDS | 0.78 | 6/6 |
| GFDINEYGIS | VIYADGRRTFYADSVK | GQTAGTFDV | -0.30 | 6/6 |
| GFSLNEYGIS | VIYSDGRRTFYGDPVK | GRTAGTFFS | nd | 0/6 |
| GDDLQEYGIS | VIYADGLRTAYGNSVK | GGSNGLVTV | nd | 0/6 |
| GFDLDEYGIS | VIYADGRRTFYQDSVK | GNVAGTFDE | 0.97 | 6/6 |
| GFEIQEYGIS | VIYADGRRTAYAENVK | GTMGGTFST | 0.76 | 6/6 |
| GFDLDEYGIS | VIYADGMRTVYADSVK | GNVAGTFDV | 0.38 | 6/6 |
| GFTLNSYGIS | VIYSDGRRTFYTDSVK | GMCAGTFDS | 2.74 | 1/6 |
| GFELNDYGIS | VIYSDGRRTFYGDSVK | GTAAGTFDS | 0.59 | 4/6 |
| GDDLEAYGIS | VIYADGMRTYYSDAVK | GNVNGTFTD | nd | 0/6 |
| GFTLNEYGIS | VIYSDGRRAFYTTSKK | GWFAGTFDS | nd | 0/6 |
| GFDLNEYGIS | VIYADGSRTVYADSVK | GNVAGTFDM | -0.87 | 6/6 |
| GFDLDEYGIS | VIYADGVRTAYTDSVK | GENAGTFDV | -0.13 | 6/6 |
| GFRLNSYGIS | VIYSDGRRTFYGDSVK | GRAAGTFDS | nd | 0/6 |
| GFDINEYGIS | VIYADGRRTQYADSVK | GETAGTFDS | 0.25 | 6/6 |
| GFGLDEYGIS | VIYADGRRTFYADSVK | GENAGTFLV | 1.23 | 5/6 |
| GFDLDEYGIS | VIYADGMRTAYSDSVK | GEVAGTFDM | -0.40 | 6/6 |
| GFSLNDYGIS | VIYSDGRRTFYGDSVK | GKAAGTFIS | 1.74 | 1/6 |
| GFTLNDYGIS | VIYSDGRRTFYHDSVK | GRAAGTFRS | 1.68 | 1/6 |
| GFTLDSYGIS | VIYSDGRRTFYVDSVK | GQLAGTFDS | 1.27 | 1/6 |
| GFQLDEYGIS | VIYADGQRTFYADSVK | GEVAGTFDV | -0.27 | 6/6 |
| GFYLNEYGIS | VIYADGIRSRYANKVK | GNGAGTLDD | nd | 0/6 |
| GFNLNSYGIS | VIYSDGRRTFYKDKVK | GRTAGTFDS | 0.53 | 3/6 |
| GFTLDSYGIS | VIYADGRRTFYGDSVK | GRAAGTFCS | 0.45 | 6/6 |
| GDSLAEYGIS | VIYADGERSAYKNSFK | GWVAGYFDV | nd | 0/6 |
| GFWLNSYGIS | VIYSDGRRTFYADSVK | GQTAGTFDS | 1.15 | 5/6 |
| GFTLNEYGIS | VIYSDGIRTFYGDSVK | GRAAGTFDT | 0.30 | 6/6 |
| GFQLNDYGIS | VIYSDGRRTFYQDSVK | GRTAGTFDS | -0.06 | 6/6 |
| GFTLKSYGIS | VIYSDGRRTFYGDSVK | GQAAGTFDS | 1.97 | 1/6 |
| GFSLNSYGIS | VIYSDGRRTFYGDSVK | GRTAGTFDW | 1.70 | 6/6 |
| KFTLNSYGIS | VIYSDGRRTFYDDSVK | GRLAGTFDS | 1.47 | 1/6 |
| GFTLNDYGIS | VIYSDGRRTFYGESVK | GRTAGTFDA | 1.33 | 6/6 |
| GFNLNEYGIS | VIYADGNRNFYADSVK | GLHAGFFDI | nd | 0/6 |
| GFTLNSYGIS | VIYSDGRRTFYDDSVK | GQLAGTFVS | nd | 0/6 |
| GFDLNEYGIS | VIYADGRRTSYKDSVK | GELAGTFDV | -0.20 | 6/6 |
| GFSLDEYGIS | VIYADGRRTFYADSVK | GNVAGTFDK | -1.16 | 6/6 |

From the AlphaSeq antibody data of Li et al. 2023 (doi:10.1038/s41467-023-39022-2), copy in the FLAb collection.